Assay results: patent EP2042507A1, “Insecticidal derivatives of phosphorylated aminoheterocycles” (dated 2009)

Assays:
[1] = tested on: Phaedon cochleariae; assay: Phaedon cochleariae - test (spray application); settings: application rate of 500 g/ha, Chinese cabbage leaf-disks, mustard beetle larvae
[2] = tested on: Myzus persicae; assay: Myzus persicae - test (spray application); settings: application rate of 500 g/ha, Chinese cabbage leaf-disks, all instars of the green peach aphid
[3] = tested on: Tetranychus urticae; assay: Tetranychus urticae - test; OP-resistant (spray application); settings: application rate of 20 g/ha, French bean, all stages of the two spotted spidermite

Measured: activity (mortality in %)

CCCSP(=S)(OCC)N1CCO/C1=N\[C@H]1CCc2ccccc21 (stereo partly drawn)
≥ 80%: all assays above
